From ChEMBL document CHEMBL4732170, “Discovery of Small-Molecule Antagonists of the PWWP Domain of NSD2” (J Med Chem, 2021)

Target: T1, Histone-lysine N-methyltransferase NSD2 (Homo sapiens) (UniProt O96028)
T1 sequence (whole entry): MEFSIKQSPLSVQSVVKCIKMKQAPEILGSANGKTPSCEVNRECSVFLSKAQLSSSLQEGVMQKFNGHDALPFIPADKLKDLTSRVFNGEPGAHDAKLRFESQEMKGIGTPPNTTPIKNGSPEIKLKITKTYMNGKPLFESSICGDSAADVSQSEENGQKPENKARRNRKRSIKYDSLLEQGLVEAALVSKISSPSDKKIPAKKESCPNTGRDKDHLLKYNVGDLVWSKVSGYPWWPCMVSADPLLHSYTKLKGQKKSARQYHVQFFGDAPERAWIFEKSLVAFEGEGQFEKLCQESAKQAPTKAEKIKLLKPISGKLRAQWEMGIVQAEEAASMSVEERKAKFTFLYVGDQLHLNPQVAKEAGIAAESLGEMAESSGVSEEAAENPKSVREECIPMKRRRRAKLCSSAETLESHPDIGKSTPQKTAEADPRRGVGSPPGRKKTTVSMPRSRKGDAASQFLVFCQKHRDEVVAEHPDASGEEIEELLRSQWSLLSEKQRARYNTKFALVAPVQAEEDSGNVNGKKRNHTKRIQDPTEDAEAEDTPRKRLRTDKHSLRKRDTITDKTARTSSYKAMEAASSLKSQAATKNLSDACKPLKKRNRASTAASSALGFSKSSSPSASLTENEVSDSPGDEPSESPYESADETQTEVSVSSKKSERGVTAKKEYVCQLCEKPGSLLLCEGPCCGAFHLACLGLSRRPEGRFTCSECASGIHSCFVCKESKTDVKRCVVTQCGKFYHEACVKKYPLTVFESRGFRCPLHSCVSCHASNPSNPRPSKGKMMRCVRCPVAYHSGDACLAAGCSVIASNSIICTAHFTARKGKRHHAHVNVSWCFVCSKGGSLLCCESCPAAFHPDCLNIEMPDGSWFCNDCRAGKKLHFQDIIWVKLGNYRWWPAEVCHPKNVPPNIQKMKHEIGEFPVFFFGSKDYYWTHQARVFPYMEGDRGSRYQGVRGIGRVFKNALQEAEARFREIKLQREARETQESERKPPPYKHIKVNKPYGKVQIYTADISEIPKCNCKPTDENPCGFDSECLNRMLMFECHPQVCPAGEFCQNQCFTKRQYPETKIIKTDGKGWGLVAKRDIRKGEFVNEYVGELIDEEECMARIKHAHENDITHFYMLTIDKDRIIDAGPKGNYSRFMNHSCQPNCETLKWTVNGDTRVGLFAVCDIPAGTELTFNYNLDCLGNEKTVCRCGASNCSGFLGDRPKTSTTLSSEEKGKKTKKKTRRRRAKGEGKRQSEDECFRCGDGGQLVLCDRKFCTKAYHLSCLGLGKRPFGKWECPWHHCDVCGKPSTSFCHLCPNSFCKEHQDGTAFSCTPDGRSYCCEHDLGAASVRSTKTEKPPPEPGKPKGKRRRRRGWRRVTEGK
Test: Binding affinity to NSD2 PWWP1 domain (unknown origin) assessed as change in aggregation temperature at 500 uM by heating at 25 to 85 degC by differential static light scattering method
Conditions: filed as antagonist

Row | SMILES | deltaT [°C]
1 | N#Cc1ccc(C(=O)N2CCCC2c2ccc(Cl)cc2)cc1 (configuration not stated) | 1.9
2 | N#Cc1ccc(C(=O)N(Cc2ccc(F)cc2)C2CC2)cc1 | 5.7
